Laboratory results from US20230330254A1 (Regeneron, published 2023).

Target: T1, full-length cynomolgus GLP1R on HEK293/CRE-Luc/mfGLP1R cells (cynomolgus, UniProt F8V479 24-463)
T1 construct: whole, on cells
Assay: flow cytometry, mfGLP1R cells

EC50: 1.09 nM
B1: REGN8072 (antibody, human IgG4 S228P, kappa, V domains shown)
VH: QVQLVESGGGVVQPARSLRLSCAASGFAFSRSAMHWVRQAPGKGLEWVAVISYDGSNKYYTDSVKGRFTISRDNSKNTLYLQMNTLRAEDTALYYCAKMYTTMDSFDYWGQGTLVTVSS
VL: DIQLTQSPSFLSASVGDRVTITCWASQGISSYLAWYQQKPGKAPKLLIYAASTLQSGVPSRFSGSGSGTEFTLTISSLQPEDFALYYCQQLNSYPRTFGQGTKVEIKR
notes: IgG4; Q-tag on light chain N-terminus; also called mAb 4; REGN8072 unconjugated Ab
